In patent CN114763369A:

Assays:
[1] = molecular target: TNF-α抗原(GenScript，产品目录No.Z01001) (human) (UniProt P01375); experiment: indirect ELISA, TNF-α coated at 1 μg/mL, detection with enzyme-labelled goat anti-human Fab
[2] = molecular target: TNF-α抗原(GenScript，产品目录No.Z01001) (human) (UniProt P01375); experiment: cell-based or functional assay

Substance | EC50 [1] | IC50, 抑制TNF-α对L929细胞杀伤作用 (CCK-8) [2]
Adalimumab((Fab)2-Fc) (antibody; other documents disagree on this pair) | 0.515 nM | –
Adalimumab((Fab)2-Fc) (antibody) | – | 0.648 nM
